## scFv variants of Ab-95 (light chain) against a SARS-CoV-2 spike peptide

The target is the same throughout: PDVDLGDISGINAS, from the HR2 region of SARS-CoV-2 spike.

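Phage display of a naive human antibody library on the peptide gave the parent. Library AAYL52 holds single substitutions and randomly drawn double and triple substitutions in the CDRs. AlphaSeq pools MATa yeast showing the antibodies with MATalpha yeast showing the peptide. The frequency of each diploid, read from paired DNA barcodes, reflects how well the two displayed proteins bind. Each replicate has its own calibration line, from reference interactions of the BCL2 family. Each pool was mated in three replicate cultures.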

Parent scFv Ab-95: VH joined to VL by a (GGGGS)3 linker. Changes lie in the light chain CDRs alone.
VH: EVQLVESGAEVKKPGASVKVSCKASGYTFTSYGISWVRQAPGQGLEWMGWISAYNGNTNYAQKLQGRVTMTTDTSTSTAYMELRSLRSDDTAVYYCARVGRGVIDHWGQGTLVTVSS
VL: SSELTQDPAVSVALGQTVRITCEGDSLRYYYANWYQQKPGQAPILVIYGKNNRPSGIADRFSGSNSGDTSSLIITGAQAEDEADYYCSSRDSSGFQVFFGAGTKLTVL

The whole VL of each variant is written out. Values are log10 of the apparent Kd in nM; lower means stronger binding. A mean of the replicates is given; it leaves out those without a signal. Where no diploid with the target was found in any replicate, the entry reads "nd": below detection, most likely a poor binder, though not proof of it. Empty control strains, which show no peptide, gave a signal in 28% of pairings with library AAYL52; the median was 3.91 and 95% of these signals were weaker than 2.90. No background was subtracted. Also given: how often the same scFv was detected with the empty control strains.

"mean, log10 nM",replicates with signal,control signals,VL
2.15,3/3,1/9,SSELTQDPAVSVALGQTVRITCEGDSLRYYHANWYQQKPGQAPILVIYGKNNRPSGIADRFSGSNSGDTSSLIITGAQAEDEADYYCASRDSSYFQVFFGAGTKLTVL
2.52,3/3,3/9,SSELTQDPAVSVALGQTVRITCEGDALRYYYANWYQQKPGQAPILVIYGKNSRPSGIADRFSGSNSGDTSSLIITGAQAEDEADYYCSTRDSSGFQVFFGAGTKLTVL
4.48,1/3,2/9,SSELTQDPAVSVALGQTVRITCHGDSLRYYYANWYQQKPGQAPILVIYGSNNRPSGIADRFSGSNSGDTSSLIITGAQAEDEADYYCSSRDSSGFQVVFGAGTKLTVL
3.36,2/3,4/9,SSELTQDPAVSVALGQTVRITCEGDSLRYYHANWYQQKPGQAPILVIYGKNNRQSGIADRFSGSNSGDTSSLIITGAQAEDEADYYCSKRDSSGFQVFFGAGTKLTVL
2.11,3/3,6/9,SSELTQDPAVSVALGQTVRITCEGDSLRQYYANWYQQKPGQAPILVIYGKNNRPGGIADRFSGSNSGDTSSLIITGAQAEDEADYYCSSRDSSGEQVFFGAGTKLTVL
3.54,1/3,2/9,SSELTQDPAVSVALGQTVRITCEGFSLRYYYANWYQQKPGQAPILVIYGKNNRPSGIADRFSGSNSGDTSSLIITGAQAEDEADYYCSSQDVSGFQVFFGAGTKLTVL
2.25,3/3,4/9,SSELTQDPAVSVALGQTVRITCELDSLRYYYANWYQQKPGQAPILVIYGKGNRPSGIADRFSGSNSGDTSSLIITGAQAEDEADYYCSGRDSSGFQVFFGAGTKLTVL
4.15,3/3,2/9,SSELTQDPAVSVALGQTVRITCEGDPLRYYYSNWYQQKPGQAPILVIYGKNNRPSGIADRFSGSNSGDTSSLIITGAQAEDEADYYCSERDSSGFQVFFGAGTKLTVL
nd,0/3,3/9,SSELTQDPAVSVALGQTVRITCEGDSLRYYYLIWYQQKPGQAPILVIYGKNNRPSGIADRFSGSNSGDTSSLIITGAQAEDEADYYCSSRDSSGFQVLFGAGTKLTVL
2.83,1/3,4/9,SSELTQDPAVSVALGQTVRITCEGDSLRYYYANWYQQKPGQAPILVIYSKNNRPSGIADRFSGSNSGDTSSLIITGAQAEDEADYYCSSRDSSLFQVFFGAGTKLTVL
3.05,1/3,1/9,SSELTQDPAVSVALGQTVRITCEGDSFLYYYINWYQQKPGQAPILVIYGKNNRPSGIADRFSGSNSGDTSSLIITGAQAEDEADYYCSSRDSSGFQVFFGAGTKLTVL
3.50,2/3,2/9,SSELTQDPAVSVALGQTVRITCEGDSLRGYYANWYQQKPGQAPILVIYTKNNRPSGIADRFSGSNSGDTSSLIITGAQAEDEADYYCSSRDSSGFQVMFGAGTKLTVL
nd,0/3,1/9,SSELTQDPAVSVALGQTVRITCWGDSLRYYYAVWYQQKPGQAPILVIYGKNNRPSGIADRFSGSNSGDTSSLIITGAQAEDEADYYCSSRDSSGFQVGFGAGTKLTVL
1.15,3/3,6/9,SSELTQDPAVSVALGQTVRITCEGDSLRYNYANWYQQKPGQAPILVIYGKNMRCSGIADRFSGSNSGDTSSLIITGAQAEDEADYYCSSRDSSGFQVFFGAGTKLTVL
3.29,1/3,0/9,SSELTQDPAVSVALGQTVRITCGGDSLRYYYDNWYQQKPGQAPILVIYGKNNRPSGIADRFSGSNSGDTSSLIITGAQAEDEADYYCPSRDSSGFQVFFGAGTKLTVL
3.58,1/3,3/9,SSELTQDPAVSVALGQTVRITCEGDSLRDYYENWYQQKPGQAPILVIYGKNNNPSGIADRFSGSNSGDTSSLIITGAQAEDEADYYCSSRDSSGFQVFFGAGTKLTVL
4.31,1/3,2/9,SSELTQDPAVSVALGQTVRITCEGDSVRYYYANWYQQKPGQAPILVIYPKNNRPSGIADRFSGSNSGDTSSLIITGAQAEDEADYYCSSCDSSGFQVFFGAGTKLTVL
4.12,3/3,6/9,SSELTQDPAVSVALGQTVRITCEGDSLRYYYANWYQQKPGQAPILVIYGKKLRPSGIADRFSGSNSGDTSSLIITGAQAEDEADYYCSSHDSSGFQVFFGAGTKLTVL

Excerpt, the first 3 entries:

{"VL": "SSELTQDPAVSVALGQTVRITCEGDSLRYYHANWYQQKPGQAPILVIYGKNNRPSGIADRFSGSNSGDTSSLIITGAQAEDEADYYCASRDSSYFQVFFGAGTKLTVL", "mean, log10 nM": "2.15", "replicates with signal": "3/3", "control signals": "1/9"}
{"VL": "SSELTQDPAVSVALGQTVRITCEGDALRYYYANWYQQKPGQAPILVIYGKNSRPSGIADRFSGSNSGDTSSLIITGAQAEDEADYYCSTRDSSGFQVFFGAGTKLTVL", "mean, log10 nM": "2.52", "replicates with signal": "3/3", "control signals": "3/9"}
{"VL": "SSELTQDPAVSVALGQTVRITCHGDSLRYYYANWYQQKPGQAPILVIYGSNNRPSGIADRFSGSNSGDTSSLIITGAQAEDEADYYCSSRDSSGFQVVFGAGTKLTVL", "mean, log10 nM": "4.48", "replicates with signal": "1/3", "control signals": "2/9"}

Parent in this assay: reference entry 2.31, copy in this library 2.25.

The measurements come from Engelhart et al. 2022 (doi:10.1038/s41597-022-01779-4) through the FLAb antibody collection.